Assay results taken from ChEMBL document CHEMBL3865850, “Discovery of Potent and Selective Leads against Toxoplasma gondii Dihydrofolate Reductase via Structure-Based Design” (ACS Med Chem Lett, 2016).

Target: T1, Dihydrofolate reductase (Homo sapiens, UniProt P00374)
T1 sequence (P00374 whole entry): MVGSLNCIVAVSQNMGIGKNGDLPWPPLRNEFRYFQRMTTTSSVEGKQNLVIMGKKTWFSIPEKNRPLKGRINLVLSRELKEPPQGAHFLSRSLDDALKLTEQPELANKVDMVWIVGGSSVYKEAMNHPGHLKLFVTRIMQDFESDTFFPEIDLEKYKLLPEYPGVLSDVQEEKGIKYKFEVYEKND
Assay: Inhibition of recombinant human DHFR expressed in Escherichia coli preincubated for 15 mins followed by addition of DHF as substrate and NADPH measured after 60 mins by resazurin/diaphorase coupled assay

IC50: 760 nM
SMILES: Nc1ncc(N2CCN(c3cccc(-c4ccccc4)c3)CC2)c(N)n1
